ChEMBL document CHEMBL4020815 (J Med Chem, 2017)

Amino acid sequences for entries named in this document (tags omitted). A change or cut given only in a name is not applied to a line headed by its entry.
UniProt P31939: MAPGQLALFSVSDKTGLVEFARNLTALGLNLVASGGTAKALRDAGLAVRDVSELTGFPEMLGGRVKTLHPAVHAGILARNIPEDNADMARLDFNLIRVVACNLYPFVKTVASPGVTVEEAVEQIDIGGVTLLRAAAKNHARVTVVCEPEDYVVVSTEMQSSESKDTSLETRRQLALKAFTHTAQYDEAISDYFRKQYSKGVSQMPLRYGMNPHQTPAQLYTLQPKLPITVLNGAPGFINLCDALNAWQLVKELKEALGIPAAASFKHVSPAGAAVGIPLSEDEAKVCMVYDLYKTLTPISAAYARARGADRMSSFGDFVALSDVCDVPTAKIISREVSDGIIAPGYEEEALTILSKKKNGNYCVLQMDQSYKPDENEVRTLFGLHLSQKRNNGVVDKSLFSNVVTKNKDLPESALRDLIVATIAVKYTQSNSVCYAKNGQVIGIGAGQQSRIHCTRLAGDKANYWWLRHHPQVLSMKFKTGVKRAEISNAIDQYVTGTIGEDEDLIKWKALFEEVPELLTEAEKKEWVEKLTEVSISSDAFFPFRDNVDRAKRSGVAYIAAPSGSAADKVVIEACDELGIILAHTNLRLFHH

How the values were obtained:
[1] = biological target: T1, Bifunctional purine biosynthesis protein ATIC (Homo sapiens, UniProt P31939); test: Inhibition of AICARFT in human NCI-H460 cells assessed as increase in ZMP levels using regular folate media after 16 hrs by LC-MS method; assay type: cell-based
[2] = biological target: T1, Bifunctional purine biosynthesis protein ATIC; test: Inhibition of AICARFT in human MDA-MB-231 cells assessed as increase in ZMP levels using regular folate media after 16 hrs by LC-MS method; assay type: cell-based
[3] = biological target: T1, Bifunctional purine biosynthesis protein ATIC; test: Inhibition of AICARFT in human MDA-MB-231 cells assessed as increase in ZMP levels using low folate media after 16 hrs by LC-MS method; assay type: cell-based
[4] = Antiproliferative activity against human MDA-MB-231met2 cells by Cell Titer-Glo assay; assay type: functional, cell-based
[5] = biological target: T1, Bifunctional purine biosynthesis protein ATIC; test: Inhibition of AICARFT in human NCI-H460 cells assessed as increase in ZMP levels using low folate media after 16 hrs by LC-MS method; assay type: cell-based

SMILES: O=c1[nH]ccc2cc(F)c(NS(=O)(=O)c3ccc(N4CC[C@@H](O)C4)s3)cc12
- EC50 [1]: 356 nM
- EC50 [2]: 73 nM
- EC50 [3]: 7.6 nM
- IC50 [4]: 7.6 nM

SMILES: O=c1[nH]ccc2cc(F)c(NS(=O)(=O)c3ccc(N4CC[C@H](O)C4)s3)cc12
- EC50 [5]: 25 nM
